# Apparent affinities of Ab-14 variants for a coronavirus HR2 peptide

Binding partner: SARS-CoV-2 spike HR2 peptide, sequence PDVDLGDISGINAS.

Parent scFv Ab-14: VH joined to VL by three GGGGS repeats. Changes lie in the heavy chain CDRs alone.
VH: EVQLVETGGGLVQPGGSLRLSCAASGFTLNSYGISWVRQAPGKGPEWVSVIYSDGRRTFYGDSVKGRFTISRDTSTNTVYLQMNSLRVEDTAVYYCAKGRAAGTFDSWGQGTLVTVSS
VL: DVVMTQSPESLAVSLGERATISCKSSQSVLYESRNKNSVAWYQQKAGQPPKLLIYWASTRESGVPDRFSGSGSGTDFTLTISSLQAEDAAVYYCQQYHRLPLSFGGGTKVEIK

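Phage display of a naive human antibody library on the peptide gave the parent. Variants in AAYL49 differ from the parent at up to three CDR positions; double and triple changes were sampled at random. Affinity was read by AlphaSeq, a pooled yeast mating assay with surface-displayed partners. Pairs that bind mate more often; barcode pairs of the diploids are counted by sequencing. Scores were corrected for input abundance and mapped to Kd with protein pairs of known affinity run in the same pool. Each pool was mated in three replicate cultures.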

The parent's heavy chain CDRs are GFTLNSYGIS, VIYSDGRRTFYGDSVK, GRAAGTFDS; each variant's own CDRs replace them letter for letter. Values are log10 of the apparent Kd in nM; lower means stronger binding. A pair that was not seen in that replicate is written "nd"; this usually means weak binding, but a binder can also be missed.

GFQLHSGGIS | VIYSDGRRTFYGDSVK | GRAAGTFDS: nd, nd, nd (controls 0 of 9).
AFTLQSYGIS | RIYSDGRRTFYGDSVK | GRAAGTFDS: nd, nd, nd (controls 0 of 9).
GFTLNSYGIS | VKYSEGRRTFYGDSVK | GRASGTFDS: nd, nd, nd (controls 0 of 9).
GFTLNSYGIS | GIYSDGRCTFYGDSVK | GRAAGTSDS: nd, nd, nd (controls 2 of 9).
YFTLNSYGIS | VIYSRGRRTFYGNSVK | GRAAGTFDS: nd, nd, nd (controls 0 of 9).
GVTLNSYGIS | VIPSDGRRTFYGDSVK | GRAAGTEDS: 3.86, 3.91, nd (controls 3 of 9).
GFTLNSYCIS | VIYSDGRRTHYGDSVM | GRAAGTFDS: nd, nd, nd (controls 0 of 9).
EFTLNSTGIS | VIYSDWRRTFYGDSVK | GRAAGTFDS: 5.17, nd, 4.46 (controls 3 of 9).
GFTLNSYGIS | VIDSDGRRKFYGDSVK | GRAAHTFDS: nd, 4.08, nd (controls 2 of 9).
GFTLNSYEIS | VIYSDGRRTGYGDSVK | GRDAGTFDS: 3.58, nd, 6.30 (controls 3 of 9).
GFTLPSYGIS | VIYPDGRRTFYGDSVK | GRAAGSFDS: 3.50, nd, 4.83 (controls 4 of 9).
GFTLNSYGIS | VIYSDGRRTFYGDSEK | GRAAGLFDS: nd, nd, nd (controls 3 of 9).
GFTYNSWGIS | VIYSDGRRTFYGDSVV | GRAAGTFDS: 4.27, 4.47, nd (controls 4 of 9).
GFTINSYGIS | VIYSDGRRTFYGDSVK | GRAAGDFDM: nd, nd, nd (controls 1 of 9).
GFTLNSMGIS | VIYSDGRRGFYGLSVK | GRAAGTFDS: nd, 5.01, nd (controls 3 of 9).
GFTLNHYGIS | VIYSDGRRTFYGDSVG | GRAAVTFDS: nd, nd, nd (controls 2 of 9).
GFTLNSYGIS | VIYIDGRRTFYGTSVE | GRAAGTFDS: nd, nd, 4.12 (controls 2 of 9).
GFTLNSYGIS | VIYSDGRRTFYGHSVK | HRAAGTFDA: nd, 3.54, nd (controls 0 of 9).
GFTLNSYGIS | FGYSDGRRTFYGDSVK | GREAGTFDS: nd, nd, nd (controls 0 of 9).
GFTLVSYGIS | VIYSDGRRTFYGDSVK | GRALGTFDS: nd, 1.78, 2.25 (controls 0 of 9).
GFTLNSYMIS | VIYSDGRRTFYGDSVK | GRAAGTFDS: nd, nd, nd (controls 1 of 9).
GFTLNSYGIS | VIISDIRRTFYGDSVK | GRSAGTFDS: 4.13, nd, nd (controls 3 of 9).
MFTLNSYGIS | VIYSDGRRTFYEDSVK | GSAAGTFDS: 3.72, 2.18, nd (controls 0 of 9).
GFTLNSYEIS | VIYSDGRRTFYGQSVK | GRAAGTRDS: nd, nd, 5.17 (controls 1 of 9).
GFILNSYGGS | VIYSDGRRTFYGDSVK | GRAAGTFIS: nd, 5.07, 4.42 (controls 1 of 9).
MFTLNSWGIS | VIYSDGRRTFYGDSVK | GRAAGTFPS: nd, nd, nd (controls 0 of 9).
GFTLNTYGIS | VIYSDGRDTFYGDSVK | GRALGTFDS: 5.38, 2.61, 5.29 (controls 2 of 9).
GFTLNSYGIS | VINSDGRRTFYGDSHK | KRAAGTFDS: nd, nd, nd (controls 0 of 9).
GFTLNSYGIS | WIYSDRRMTFYGDSVK | GRAAGTFDS: nd, nd, 4.85 (controls 2 of 9).
EFTLNSYGIS | VIYSDGRRTFYGDSVM | GRAAGTNDS: nd, nd, 3.74 (controls 2 of 9).
GFTLNSYGIS | VIYSDGRCTPYGDSVK | GRAANTFDS: nd, nd, 3.42 (controls 0 of 9).
GFWLNSYGIS | VIYSDGERTFYGDSVK | GRAAGTFDS: 1.83, 1.92, 2.06 (controls 0 of 9).
GFTLNDNGIS | VIYSDCRRTFYGDSVK | GRAAGTFDS: nd, nd, nd (controls 0 of 9).
GFTLNSYGIS | VIYSDLRTTFYGDSVK | GRAAGTADS: nd, nd, nd (controls 2 of 9).
GFSLNSYGIS | VIYSDGRRDFKGDSVK | GRAAGTFDS: 4.11, nd, nd (controls 0 of 9).
GFFLNSDGIS | VIDSDGRRTFYGDSVK | GRAAGTFDS: nd, nd, nd (controls 0 of 9).
GFTLNSYGIS | VIYSDGRRTDYGDSVP | GRAAGTVDS: nd, nd, nd (controls 1 of 9).
GFTLNSHGIS | VIYSDGRRTFYGKSVC | GRAAGTFDS: nd, 4.20, nd (controls 4 of 9).
GFTLNDYGTS | WIYSDGRRTFYGDSVK | GRAAGTFDS: nd, nd, nd (controls 3 of 9).

The 2 strongest on average among those seen in every replicate, once more:

| CDR-H1 | CDR-H2 | CDR-H3 | log10 Kd, replicates | control signals |
|---|---|---|---|---|
| GFWLNSYGIS | VIYSDGERTFYGDSVK | GRAAGTFDS | 1.83, 1.92, 2.06 | 0/9 |
| GFTLNTYGIS | VIYSDGRDTFYGDSVK | GRALGTFDS | 5.38, 2.61, 5.29 | 2/9 |

Empty control strains, which show no peptide, gave a signal in 15% of pairings with library AAYL49; the median was 4.06 and 95% of these signals were weaker than 2.83. No background was subtracted. The control count says in how many pairings with the empty strains this scFv gave a signal.

Source: Engelhart et al. 2022 (doi:10.1038/s41597-022-01779-4), MIT Lincoln Laboratory and A-Alpha Bio; data file from the FLAb repository.